# Source: patent publication US20250076325A1, “ARTIFICIAL HAPTEN AND ARTIFICIAL ANTIGEN OF FENTANYL, AND PREPARATION METHOD AND APPLICATION THEREOF” (published 2025)
# Test system: colloidal gold immunochromatography reagent strip of fentanyl
# Experiment: Drug cross-interference experiment of colloidal gold immunochromatography reagent strip of fentanyl
# Settings: reagent at 100 μg/ml in negative urine
row,Compound,Result (drug cross-interference)
1,C#C[C@]1(O)CC[C@H]2[C@@H]3CCC4=CC(=O)CC[C@@H]4[C@H]3CC[C@@]21C,−
2,CCn1cc(C(=O)O)c(=O)c2ccc(C)nc21,−
3,Penicillin,−
4,CNCCC=C1c2ccccc2CCc2ccccc21,−
5,Clc1cccc(Cl)c1N=C1NCCN1,−
6,CN(C)CCC=C1c2ccccc2CCc2ccccc21,−
7,C[C@]12CC[C@@H](O)C[C@H]1CC[C@@H]1[C@@H]2C(=O)C[C@@]2(C)[C@H]1CC[C@]2(O)C(=O)CO,−
8,NC(=O)N1c2ccccc2C=Cc2ccccc21,−
9,CN(C)CCN(Cc1cccs1)c1ccccn1,−
10,CN(C)CCCN1c2ccccc2Sc2ccc(Cl)cc21,−
11,CN[C@@H](C)[C@@H](O)c1ccccc1,−
12,NC(=O)c1cccnc1,−
13,C=CCC1(C(C)CCC)C(=O)NC(=O)NC1=O (stereo not drawn),−
14,CCCC(C)(COC(N)=O)COC(N)=O,−
15,CC(C(=O)O)c1cccc(Oc2ccccc2)c1 (stereo not drawn),−
16,CN1CCN(CCCN2c3ccccc3Sc3ccc(C(F)(F)F)cc32)CC1,−
17,OCCN1CCN(CCCN2c3ccccc3Sc3ccc(Cl)cc32)CC1,−
18,CC(C)Cc1ccc(C(C)C(=O)O)cc1 (stereo not drawn),−
19,C=C[C@H]1C[N@@]2CC[C@H]1C[C@H]2[C@H](O)c1ccnc2ccc(OC)cc12,−
20,C[C@H]1O[C@@H](O[C@H]2[C@@H](O)C[C@H](O[C@H]3[C@@H](O)C[C@H](O[C@H]4CC[C@@]5(C)[C@H](CC[C@@H]6[C@@H]5C[C@@H](O)[C@]5(C)[C@@H](C7=CC(=O)OC7)CC[C@]65O)C4)O[C@@H]3C)O[C@@H]2C)C[C@H](O)[C@@H]1O,−
21,O=C1CC[C@@]2(O)[C@H]3Cc4ccc(O)c5c4[C@@]2(CCN3CC2CC2)[C@H]1O5,−
22,O=C(O)c1cc(O)ccc1O,−
23,COc1cc(Cc2cnc(N)nc2N)cc(OC)c1OC,−
24,CC(NC(C)(C)C)C(=O)c1cccc(Cl)c1 (stereo not drawn),−
25,CC(CCc1ccccc1)NCC(O)c1ccc(O)c(C(N)=O)c1 (stereo not drawn),−
26,CCn1cc(C(=O)O)c(=O)c2cc3c(cc21)OCO3,−

row,Compound,Result (drug cross-interference)
1,Narcotine,−
2,CC(CN(C)C)CN1c2ccccc2CCc2ccccc21 (stereo not drawn),−
3,CC[C@H]1OC(=O)[C@H](C)[C@@H](O[C@H]2C[C@@](C)(OC)[C@@H](O)[C@H](C)O2)[C@H](C)[C@@H](O[C@@H]2O[C@H](C)C[C@H](N(C)C)[C@H]2O)[C@](C)(O)C[C@@H](C)C(=O)[C@H](C)[C@@H](O)[C@]1(C)O,−
4,O=C1O[C@H]([C@@H](O)CO)C(O)=C1O,−
5,CNC1(c2ccccc2Cl)CCCCC1=O (stereo not drawn),−
6,Hydroxytyramine,−
7,Cc1cc(C)nc(NS(=O)(=O)c2ccc(N)cc2)n1,−
8,NCC(O)c1ccc(O)cc1 (stereo not drawn),−
9,N[C@@H](Cc1ccc(O)cc1)C(=O)O,−
10,N[C@@H](Cc1c[nH]c2ccccc12)C(=O)O,−
11,Ecgonidine methyl ester,−
12,CC1(C)S[C@@H]2[C@H](NC(=O)[C@H](N)c3ccccc3)C(=O)N2[C@H]1C(=O)O,−
13,NS(=O)(=O)c1cc(C(=O)O)c(NCc2ccco2)cc1Cl,−
14,CC(C)NCC(O)COc1cccc2ccccc12 (stereo not drawn),−
15,O=C(O)c1ccccc1,−
16,NCCc1c[nH]c2ccc(O)cc12,−
17,C[C@]12C=CC(=O)C=C1CC[C@@H]1[C@@H]2C(=O)C[C@@]2(C)[C@H]1CC[C@]2(O)C(=O)CO,−
18,CNCCCN1c2ccccc2CCc2ccccc21,−
19,CN(C)CCOC(c1ccccc1)c1ccccc1,−
20,NCCc1ccc(O)cc1,−
21,Nc1nc(N)c2nc(-c3ccccc3)c(N)nc2n1,−
22,CN(C)CCCN1c2ccccc2CCc2ccc(Cl)cc21,−
23,COC(=O)[C@H](Cc1ccccc1)NC(=O)[C@@H](N)CC(=O)O,−
24,c1ccc(C2(N3CCCCC3)CCCCC2)cc1,−
25,O=C(N[C@H](CO)[C@H](O)c1ccc([N+](=O)[O-])cc1)C(Cl)Cl,−
26,C=CCN1CC[C@]23c4c5ccc(O)c4O[C@H]2C(=O)CC[C@@]3(O)[C@H]1C5,−

row,Compound,Result (drug cross-interference)
1,CCOc1ccc(NC(C)=O)cc1,−
2,NS(=O)(=O)c1cc2c(cc1Cl)N=CNS2(=O)=O,−
3,COc1ccc(CCN(C)CCCC(C#N)(c2ccc(OC)c(OC)c2)C(C)C)cc1OC (stereo not drawn),−
4,CN(C)CCC=C1c2ccccc2COc2ccccc21,−
5,Cc1ccccc1-n1c(C)nc2ccccc2c1=O,−
6,CCC1(CCC(C)C)C(=O)NC(=O)NC1=O,−
7,Cn1c(=O)c2c(ncn2C)n(C)c1=O,−
8,CN(C)CCC=C1c2ccccc2C=Cc2ccccc21,−
9,CNC(C)Cc1ccccc1OC (stereo not drawn),−
10,COc1ccc(C(CN(C)C)C2(O)CCCCC2)cc1 (stereo not drawn),−
11,CCN(CC)CCNC(=O)c1ccc(NC(C)=O)cc1,−
12,CCN(CC)CC(=O)Nc1c(C)cccc1C,−
13,CNCCCC12CCC(c3ccccc31)c1ccccc12,−
14,CC(=O)Nc1ccc(O)cc1,−
15,CN(C)C(=O)C(CCN1CCC(O)(c2ccc(Cl)cc2)CC1)(c1ccccc1)c1ccccc1,−
16,Vitamin B1,−
17,COc1ccc(Cc2nccc3cc(OC)c(OC)cc23)cc1OC,−
18,CC(=O)OCC(=O)[C@@]1(O)CC[C@H]2[C@@H]3CCC4=CC(=O)CC[C@]4(C)[C@H]3[C@@H](O)C[C@@]21C,−
19,CC1=C(CC(=O)O)c2cc(F)ccc2/C1=C\c1ccc([S+](C)[O-])cc1 (stereo not drawn),−
20,OC(O)C(Cl)(Cl)Cl,−
21,CC(C)(C)NCC(O)c1ccc(O)c(CO)c1 (stereo not drawn),−
22,COc1ccc2cc([C@H](C)C(=O)O)ccc2c1,−
23,CSc1ccc2c(c1)N(CCC1CCCCN1C)c1ccccc1S2 (stereo not drawn),−
24,O=C(O)c1ccccc1O,−
25,Benzoylecgonine,−
26,Levo-cotinine,−
